Measured values from publication PMC7466159, “Anti-Metastasis Fascin Inhibitors Decrease the Growth of Specific Subtypes of Cancers” (Cancers, 2020).

Test system: classical Hodgkin lymphoma cells including L-1236, L428, KM-H2, HDLM-2, U-HO1, and SUP-HD1 cells
Assay: Cell growth of classical Hodgkin lymphoma cells in culture
Type: cell-based
Conditions: different concentrations

In the case of `Cc1occc1C(=O)Nc1nn(Cc2ccc(C(F)(F)F)cc2)c2ccccc12` [NP-G2-044], the “effect on cell growth” value is reported as “did not observe an inhibitory effect”.
